From ChEMBL document CHEMBL4619828, “Discovery of Potent and Orally Bioavailable Small Molecule Antagonists of Toll-like Receptors 7/8/9 (TLR7/8/9)” (ACS Med Chem Lett, 2020)

Target: T1, Toll-like receptor 9 (Homo sapiens) (UniProt Q9NR96)
T1 sequence (whole entry): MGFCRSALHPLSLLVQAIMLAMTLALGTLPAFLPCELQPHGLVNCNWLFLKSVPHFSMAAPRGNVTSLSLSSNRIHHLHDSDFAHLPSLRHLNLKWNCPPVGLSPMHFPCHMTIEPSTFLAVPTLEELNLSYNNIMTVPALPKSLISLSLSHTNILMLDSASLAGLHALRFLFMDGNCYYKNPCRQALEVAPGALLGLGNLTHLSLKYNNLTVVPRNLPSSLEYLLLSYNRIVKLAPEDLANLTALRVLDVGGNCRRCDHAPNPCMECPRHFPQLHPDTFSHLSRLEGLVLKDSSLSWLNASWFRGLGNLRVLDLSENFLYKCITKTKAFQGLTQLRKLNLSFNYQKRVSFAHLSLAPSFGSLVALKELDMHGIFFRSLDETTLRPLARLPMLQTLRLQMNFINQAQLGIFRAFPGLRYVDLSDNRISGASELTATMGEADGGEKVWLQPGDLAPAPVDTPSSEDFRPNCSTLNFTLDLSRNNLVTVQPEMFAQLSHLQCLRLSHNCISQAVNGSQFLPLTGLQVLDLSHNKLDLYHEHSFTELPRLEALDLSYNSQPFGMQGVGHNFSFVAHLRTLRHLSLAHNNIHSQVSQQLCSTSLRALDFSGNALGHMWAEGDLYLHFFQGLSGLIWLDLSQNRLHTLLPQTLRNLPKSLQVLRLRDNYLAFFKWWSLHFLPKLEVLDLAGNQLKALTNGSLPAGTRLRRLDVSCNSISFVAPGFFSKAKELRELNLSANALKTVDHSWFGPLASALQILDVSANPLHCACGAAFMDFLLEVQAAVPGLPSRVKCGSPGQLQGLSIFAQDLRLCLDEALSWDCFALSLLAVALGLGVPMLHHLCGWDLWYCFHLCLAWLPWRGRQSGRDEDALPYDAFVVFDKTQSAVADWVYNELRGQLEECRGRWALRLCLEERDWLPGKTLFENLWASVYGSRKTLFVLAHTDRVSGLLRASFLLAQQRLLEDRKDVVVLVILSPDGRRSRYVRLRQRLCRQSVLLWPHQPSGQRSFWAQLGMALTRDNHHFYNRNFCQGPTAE
Assay: Antagonist activity at human TLR9 overexpressed in HEK-Blue cells assessed as inhibition of ODN2006-induced NFkappaB and AP-1 activation at 10 uM preincubated for 30 mins followed by ODN2006 stimulation measured after 22 hrs by quanti-blue SEAP assay relative to control
Format: cell-based

`CNCCN1CCC(c2ccc3[nH]c(-c4ccccc4Cl)c(F)c3c2)CC1` was tested, and the inhibition was 23%.
